Assay results taken from ChEMBL document CHEMBL2034867, “S-Farnesyl-Thiopropionic Acid (FTPA) Triazoles as Potent Inhibitors of Isoprenylcysteine Carboxyl Methyltransferase” (ACS Med Chem Lett, 2012).

Experiments:
MEF [1] = test: Cytotoxicity against icmt-positive MEF cells after 5 days by MTT assay; format: functional, cell-based; conditions: Mus musculus, 120 h
Method in brief: (§1)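 MEFs from Icmt+/+ or Icmt–/– animals were seeded at 1000 cells/well in DMEM with 10% FBS for 24 h. Medium was then changed to DMEM with 5% FBS containing compound at various concentrations, or 0.1% DMSO. After 5 days, MTT (5 mg/mL) was added for 4 h at 37 °C. Medium was removed, formazan dissolved in DMSO, and absorbance read at 590 nm.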

MEF [2] = test: Cytotoxicity against icmt-double mutant MEF cells after 5 days by MTT assay; format: cell-based; conditions: Mus musculus, 120 h; method in brief: as §1

Compound: CC(C)=CCC/C(C)=C/CC/C(C)=C/CSc1ccccc1C(=O)O [SALIRASIB]
- IC50 (MEF [1]): 15.3 µM
- IC50 (MEF [2]): 14.3 µM
